System: MND enzyme
Type: biochemical, Methylobacterium Thebainfresser
Conditions: overnight enzyme assay at 30° C., 7.5 μM substrate, ~36 μg purified MND enzyme, pH 8.0; reduction of substrate vs empty vector control; percentages approximate
Method: Samples were injected by the UFLCXR (Shimadzu) autosampler/pump system using a 0.5 ml/min flow rate prior to separation using a Gemini C-18 column (150×2.00 mm, 5μ, 110 Å; Phenomenex) and introduction into the QTRAP 6500. The program consisted of a binary gradient with solvent A (5% acetonitrile/5% MeOH/10 mM ammonium acetate/15 mM NH4OH) and solvent B (90% acetonitrile/10 mM ammonium acetate/15 mM NH4OH) and the following gradient: 0-2.0 min 0% B, 2.0-9.0 min 0-44% B, 9.0-11.0 min 44-100% solvent B, 11-13 min 100% B and 100-0% solvent B from 13-14 min and held at 0% B for an additional 8 min. EPI scans for each substrate and predicted product mass were included for each enzyme assay and source parameters were identical to those used for the QTRAP 4000 above except CE and DP which were based upon the optimum for each individual compound. Masses used can be found in table 3. Data were analyzed using Analyst 1.6.2.
Substrates were prepared in a 1 mM stock concentration then diluted to 100 μM working concentration for use in enzyme assays with the MND enzyme. […] All samples were diluted 10 fold with 50% MeOH and analyzed on the QTRAP 6500 using method 2 and a 20 μl injection volume. The percentage of substrate demethylation was calculated based upon reduction of substrate in the enzyme assay as compared to the negative control. […]

CN1CC[C@]23c4c5ccc(O)c4O[C@H]2C(=O)CC[C@H]3[C@H]1C5 [Hydromorphone]
Percent demethylated: 98%
